Measurements: paper PMC10912764

By UniProt entry, the sequences of proteins in these tests, tags left out. Residues count along the entry.
UniProt P28307, 21-151: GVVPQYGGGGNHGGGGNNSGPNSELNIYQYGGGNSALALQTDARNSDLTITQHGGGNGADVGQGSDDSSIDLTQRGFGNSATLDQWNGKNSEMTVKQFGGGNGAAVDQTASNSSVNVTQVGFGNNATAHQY

Experiments:
[1] = target: E. coli CsgA protein with a C-terminal 6× His tag (E. coli) (UniProt P28307)
[2] = target: E. coli CsgA protein with a C-terminal 6× His tag (E. coli) (UniProt P28307); remark: listed apart in the source

amyloid-β peptide Aβ (1–42) (from UniProt P05067 672-713)
decrease in curli formation in E. coli UTI89 biofilms (ThT signal) grown with 7.5 µM α-sheet oligomeric Aβ [1]: 50% | decrease in cell and biofilm density (OD600) of UTI89 biofilms grown with 7.5 µM oligomeric Aβ [2]: 47%
